Reference: PMC5842505, “Allosteric Inhibition of Serotonin 5-HT7 Receptors by Zinc Ions” (Molecular Neurobiology, 2017)
Where two headings read alike, the source gives them in different places.

By UniProt entry, the sequences of proteins in these tests, tags left out. Residues count along the entry.
UniProt P34969, 1-432 limits assumed: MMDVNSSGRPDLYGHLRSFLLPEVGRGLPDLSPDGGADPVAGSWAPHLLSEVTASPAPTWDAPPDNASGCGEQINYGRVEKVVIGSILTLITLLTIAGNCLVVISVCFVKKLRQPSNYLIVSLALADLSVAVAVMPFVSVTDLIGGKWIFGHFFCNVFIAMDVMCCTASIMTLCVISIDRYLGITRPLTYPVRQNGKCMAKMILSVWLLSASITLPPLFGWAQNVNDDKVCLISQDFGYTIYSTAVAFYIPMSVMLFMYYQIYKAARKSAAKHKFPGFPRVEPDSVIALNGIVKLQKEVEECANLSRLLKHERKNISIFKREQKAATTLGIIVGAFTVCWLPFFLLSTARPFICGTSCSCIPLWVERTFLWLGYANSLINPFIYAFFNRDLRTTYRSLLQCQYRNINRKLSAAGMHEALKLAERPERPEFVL

What was measured:
Set-up in all cases: The full-length human 5-HT7b receptor complementary DNA (cDNA)
human 5-HT7 receptor [1] = target: T1, human 5-HT7 receptor (Homo sapiens, UniProt P34969); test: Saturation radioligand binding in the absence and presence of Zn2+
Experimental: HEK293 cells stably expressing the human 5-HT7b receptor were grown in Dulbecco’s Modified Eagle’s Medium (DMEM) (Lonza, Basel, Switzerland) supplemented with 10% dialyzed fetal bovine serum (FBS) (Lonza) and 500 μg/ml G418 sulfate (Sigma-Aldrich) at 37 °C in a humidified atmosphere with 5% CO2. For the membrane preparations, the cells were sub-cultured in 150-cm^2 flasks, grown to 90% confluence, washed twice with phosphate-buffered saline (PBS) pre-warmed to 37 °C, and pelleted by centrifugation (200×g for 5 min) in PBS containing 0.1 mM ethylenediaminetetraacetic acid (EDTA) and 1 mM dithiothreitol (DTT). Prior to the membrane preparation, the pellets were frozen at −80 °C. For the functional experiments, the cells were sub-cultured in 75-cm^2 flasks, grown to 90% confluence, washed twice with PBS pre-warmed to 37 °C, and pelleted by centrifugation (180×g) in PBS containing 0.5 mM EDTA. The supernatant was aspirated, and the cell pellet was resuspended in stimulation buffer (1× HBSS, 5 mM HEPES, 0.5 mM IBMX, 0.1% BSA).
Cell pellets were thawed and homogenized in 10 volumes of 50 mM Tris–HCl buffer (pH 7.7) containing 0.1 mM EDTA, using an Ultra Turrax tissue homogenizer. The pellets were centrifuged twice at 35,000×g for 20 min at 4 °C, with 15-min incubation at 37 °C between centrifugations. The pellets were then resuspended in the incubation buffer as described below for the radioligand binding assays. The membrane protein concentrations were determined using the Pierce™ Coomassie (Bradford) Protein Assay Kit (Thermo Fisher Scientific, Waltham, USA), with bovine serum albumin (BSA) as the standard.
Data from the saturation (K D), competition binding (K i), and kinetic experiments (koff/offobs) were fitted to a one- or two-site model, and the models were compared using an F test (extra sum-of-squares test).

human 5-HT7 receptor [2] = target: T1, human 5-HT7 receptor; test: Dissociation rate kinetic assay; assay type: binding; settings: Zn2+ 0 μM; 37 °C; dissociation induced by 10 μM 5-HT
human 5-HT7 receptor [3] = target: T1, human 5-HT7 receptor; settings: reported in earlier publications; cited from earlier work

- Bmax (human 5-HT7 receptor [1]; Zn2+ 0 μM): 91.2 ± 10.0 pM/mg
- Kd (human 5-HT7 receptor [1]; Zn2+ 0 μM, HEK293 membranes, 37 °C, 60 min): 9.6 ± 0.8 nM
- Bmax (human 5-HT7 receptor [1]; Zn2+ 10 μM): 76.4 ± 12.1 pM/mg
- Bmax (human 5-HT7 receptor [1]; Zn2+ 100 μM): 72.2 ± 9.4 pM/mg
- Bmax (human 5-HT7 receptor [1]; Zn2+ 200 μM): 116.7 ± 24.8 pM/mg
- Bmax (human 5-HT7 receptor [1]; Zn2+ 500 μM): 105.6 ± 13.9 pM/mg
- Bmax (receptors labeled) (human 5-HT7 receptor [1]; absence of zinc): 91.2 pmol/mg of protein
- Dissociation rate koff (human 5-HT7 receptor [2]): 0.000983 ± 0.000583 s⁻¹
Substance: [^3H]mesulergine
- Kd (human 5-HT7 receptor [3]): 6.2 nM
